Experimental data published in PubChem BioAssay (NCI).
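Method: 48-hour compound exposure of cells in 96-well plates, five concentrations, linear interpolation of endpoints. GI50 marks 50% less growth. TGI: total growth inhibition.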

Experiments:
Test in all cases: NCI tumour cell line growth inhibition, 48 h
SF-268 CNS = test system: SF-268 CNS
SF-295 CNS = test system: SF-295 CNS
P388 leukemia = test system: P388 leukemia
HL-60(TB) leukemia = test system: HL-60(TB) leukemia
CAKI-1 renal = test system: CAKI-1 renal
K-562 leukemia = test system: K-562 leukemia
SNB-78 CNS = test system: SNB-78 CNS
OVCAR-8 ovarian = test system: OVCAR-8 ovarian
MCF7 breast = test system: MCF7 breast
SW-620 colon = test system: SW-620 colon
OVCAR-3 ovarian = test system: OVCAR-3 ovarian
RPMI-8226 leukemia = test system: RPMI-8226 leukemia
NCI-H522 lung = test system: NCI-H522 lung
P388/ADR leukemia = test system: P388/ADR leukemia
DLD-1 colon = test system: DLD-1 colon
NCI-H226 lung = test system: NCI-H226 lung
NCI/ADR-RES ovarian = test system: NCI/ADR-RES ovarian
IGROV1 ovarian = test system: IGROV1 ovarian
DMS 273 small cell lung = test system: DMS 273 small cell lung
LOX IMVI melanoma = test system: LOX IMVI melanoma
MALME-3M melanoma = test system: MALME-3M melanoma
SN12K1 renal = test system: SN12K1 renal
M19-MEL melanoma = test system: M19-MEL melanoma
UACC-257 melanoma = test system: UACC-257 melanoma
SF-539 CNS = test system: SF-539 CNS
U251 CNS = test system: U251 CNS
HOP-92 NSCLC = test system: HOP-92 NSCLC
HCT-116 colon = test system: HCT-116 colon
UACC-62 melanoma = test system: UACC-62 melanoma
SK-MEL-28 melanoma = test system: SK-MEL-28 melanoma
MOLT-4 leukemia = test system: MOLT-4 leukemia
COLO 205 colon = test system: COLO 205 colon
HCT-15 colon = test system: HCT-15 colon
CCRF-CEM leukemia = test system: CCRF-CEM leukemia
SK-OV-3 ovarian = test system: SK-OV-3 ovarian
HOP-18 NSCLC = test system: HOP-18 NSCLC
KM12 colon = test system: KM12 colon
DMS 114 small cell lung = test system: DMS 114 small cell lung
SK-MEL-5 melanoma = test system: SK-MEL-5 melanoma
HT29 colon = test system: HT29 colon
NCI-H23 lung = test system: NCI-H23 lung
A498 renal = test system: A498 renal
A549 NSCLC = test system: A549 NSCLC
OVCAR-4 ovarian = test system: OVCAR-4 ovarian
RXF 393 renal = test system: RXF 393 renal
HCC-2998 colon = test system: HCC-2998 colon
SNB-75 CNS = test system: SNB-75 CNS
KM20L2 colon = test system: KM20L2 colon
OVCAR-5 ovarian = test system: OVCAR-5 ovarian
UO-31 renal = test system: UO-31 renal
HOP-62 NSCLC = test system: HOP-62 NSCLC
NCI-H322M lung = test system: NCI-H322M lung
NCI-H460 lung = test system: NCI-H460 lung
SN12C renal = test system: SN12C renal
EKVX NSCLC = test system: EKVX NSCLC
SNB-19 CNS = test system: SNB-19 CNS
SK-MEL-2 melanoma = test system: SK-MEL-2 melanoma

Question: Which GI50 (SF-268 CNS) does the source give for N#CC1=C(C#N)NP(=O)(N(CCCl)CCCl)N1 here?
Answer: > 100 µM

Question: And the TGI (SF-268 CNS)?
Answer: > 100 µM

Question: What about the GI50 (SF-295 CNS) of the same compound?
Answer: > 100 µM

Question: And the TGI (SF-295 CNS)?
Answer: > 100 µM

Question: What about the GI50 (P388 leukemia) of the same compound?
Answer: > 100 µM

Question: And the TGI (P388 leukemia)?
Answer: > 100 µM

Question: And the GI50 (HL-60(TB) leukemia)?
Answer: 31.6 µM

Question: What about the TGI (HL-60(TB) leukemia) of the same compound?
Answer: 31.6 µM

Question: What about the GI50 (CAKI-1 renal) of the same compound?
Answer: > 100 µM

Question: And the TGI (CAKI-1 renal)?
Answer: > 100 µM

Question: What about the GI50 (K-562 leukemia) of the same compound?
Answer: > 100 µM

Question: And the TGI (K-562 leukemia)?
Answer: > 100 µM

Question: What about the GI50 (SNB-78 CNS) of the same compound?
Answer: > 100 µM

Question: What about the TGI (SNB-78 CNS) of the same compound?
Answer: > 100 µM

Question: And the GI50 (OVCAR-8 ovarian)?
Answer: > 100 µM

Question: What about the TGI (OVCAR-8 ovarian) of the same compound?
Answer: > 100 µM

Question: What about the GI50 (MCF7 breast) of the same compound?
Answer: > 100 µM

Question: What about the TGI (MCF7 breast) of the same compound?
Answer: > 100 µM

Question: And the GI50 (SW-620 colon)?
Answer: > 100 µM

Question: What about the TGI (SW-620 colon) of the same compound?
Answer: > 100 µM

Question: And the GI50 (OVCAR-3 ovarian)?
Answer: > 100 µM

Question: What about the TGI (OVCAR-3 ovarian) of the same compound?
Answer: > 100 µM

Question: What about the GI50 (RPMI-8226 leukemia) of the same compound?
Answer: > 100 µM

Question: What about the TGI (RPMI-8226 leukemia) of the same compound?
Answer: > 100 µM

Question: What about the GI50 (NCI-H522 lung) of the same compound?
Answer: > 100 µM

Question: And the TGI (NCI-H522 lung)?
Answer: > 100 µM

Question: And the GI50 (P388/ADR leukemia)?
Answer: > 100 µM

Question: What about the TGI (P388/ADR leukemia) of the same compound?
Answer: > 100 µM

Question: And the GI50 (DLD-1 colon)?
Answer: > 100 µM

Question: What about the TGI (DLD-1 colon) of the same compound?
Answer: > 100 µM

Question: What about the GI50 (NCI-H226 lung) of the same compound?
Answer: > 100 µM

Question: And the TGI (NCI-H226 lung)?
Answer: > 100 µM

Question: And the GI50 (NCI/ADR-RES ovarian)?
Answer: > 100 µM

Question: And the TGI (NCI/ADR-RES ovarian)?
Answer: > 100 µM

Question: And the GI50 (IGROV1 ovarian)?
Answer: > 100 µM

Question: What about the TGI (IGROV1 ovarian) of the same compound?
Answer: > 100 µM

Question: And the GI50 (DMS 273 small cell lung)?
Answer: > 100 µM

Question: And the TGI (DMS 273 small cell lung)?
Answer: > 100 µM

Question: And the GI50 (LOX IMVI melanoma)?
Answer: > 100 µM

Question: What about the TGI (LOX IMVI melanoma) of the same compound?
Answer: > 100 µM

Question: And the GI50 (MALME-3M melanoma)?
Answer: > 100 µM

Question: And the TGI (MALME-3M melanoma)?
Answer: > 100 µM

Question: What about the GI50 (SN12K1 renal) of the same compound?
Answer: > 100 µM

Question: And the TGI (SN12K1 renal)?
Answer: > 100 µM

Question: And the GI50 (M19-MEL melanoma)?
Answer: > 100 µM

Question: And the TGI (M19-MEL melanoma)?
Answer: > 100 µM

Question: What about the GI50 (UACC-257 melanoma) of the same compound?
Answer: > 100 µM

Question: What about the TGI (UACC-257 melanoma) of the same compound?
Answer: > 100 µM

Question: And the GI50 (SF-539 CNS)?
Answer: > 100 µM

Question: And the TGI (SF-539 CNS)?
Answer: > 100 µM

Question: And the GI50 (U251 CNS)?
Answer: > 100 µM

Question: And the TGI (U251 CNS)?
Answer: > 100 µM

Question: And the GI50 (HOP-92 NSCLC)?
Answer: > 100 µM

Question: What about the TGI (HOP-92 NSCLC) of the same compound?
Answer: > 100 µM

Question: What about the GI50 (HCT-116 colon) of the same compound?
Answer: > 100 µM

Question: And the TGI (HCT-116 colon)?
Answer: > 100 µM

Question: What about the GI50 (UACC-62 melanoma) of the same compound?
Answer: > 100 µM

Question: And the TGI (UACC-62 melanoma)?
Answer: > 100 µM

Question: What about the GI50 (SK-MEL-28 melanoma) of the same compound?
Answer: > 100 µM

Question: What about the TGI (SK-MEL-28 melanoma) of the same compound?
Answer: > 100 µM

Question: And the GI50 (MOLT-4 leukemia)?
Answer: 38.1 µM

Question: And the TGI (MOLT-4 leukemia)?
Answer: > 100 µM

Question: What about the GI50 (COLO 205 colon) of the same compound?
Answer: > 100 µM

Question: What about the TGI (COLO 205 colon) of the same compound?
Answer: > 100 µM

Question: What about the GI50 (HCT-15 colon) of the same compound?
Answer: > 100 µM

Question: What about the TGI (HCT-15 colon) of the same compound?
Answer: > 100 µM

Question: What about the GI50 (CCRF-CEM leukemia) of the same compound?
Answer: > 100 µM

Question: What about the TGI (CCRF-CEM leukemia) of the same compound?
Answer: > 100 µM

Question: And the GI50 (SK-OV-3 ovarian)?
Answer: > 100 µM

Question: What about the TGI (SK-OV-3 ovarian) of the same compound?
Answer: > 100 µM

Question: And the GI50 (HOP-18 NSCLC)?
Answer: > 100 µM

Question: And the TGI (HOP-18 NSCLC)?
Answer: > 100 µM

Question: And the GI50 (KM12 colon)?
Answer: > 100 µM

Question: What about the TGI (KM12 colon) of the same compound?
Answer: > 100 µM

Question: And the GI50 (DMS 114 small cell lung)?
Answer: > 100 µM

Question: And the TGI (DMS 114 small cell lung)?
Answer: > 100 µM

Question: What about the GI50 (SK-MEL-5 melanoma) of the same compound?
Answer: > 100 µM

Question: What about the TGI (SK-MEL-5 melanoma) of the same compound?
Answer: > 100 µM

Question: And the GI50 (HT29 colon)?
Answer: > 100 µM

Question: What about the TGI (HT29 colon) of the same compound?
Answer: > 100 µM

Question: And the GI50 (NCI-H23 lung)?
Answer: > 100 µM

Question: And the TGI (NCI-H23 lung)?
Answer: > 100 µM

Question: And the GI50 (A498 renal)?
Answer: > 100 µM

Question: And the TGI (A498 renal)?
Answer: > 100 µM

Question: What about the GI50 (A549 NSCLC) of the same compound?
Answer: > 100 µM

Question: What about the TGI (A549 NSCLC) of the same compound?
Answer: > 100 µM

Question: And the GI50 (OVCAR-4 ovarian)?
Answer: > 100 µM

Question: What about the TGI (OVCAR-4 ovarian) of the same compound?
Answer: > 100 µM

Question: What about the GI50 (RXF 393 renal) of the same compound?
Answer: > 100 µM

Question: What about the TGI (RXF 393 renal) of the same compound?
Answer: > 100 µM

Question: What about the GI50 (HCC-2998 colon) of the same compound?
Answer: > 100 µM

Question: And the TGI (HCC-2998 colon)?
Answer: > 100 µM

Question: And the GI50 (SNB-75 CNS)?
Answer: > 100 µM

Question: And the TGI (SNB-75 CNS)?
Answer: > 100 µM

Question: And the GI50 (KM20L2 colon)?
Answer: > 100 µM

Question: And the TGI (KM20L2 colon)?
Answer: > 100 µM

Question: What about the GI50 (OVCAR-5 ovarian) of the same compound?
Answer: > 100 µM

Question: What about the TGI (OVCAR-5 ovarian) of the same compound?
Answer: > 100 µM

Question: What about the GI50 (UO-31 renal) of the same compound?
Answer: > 100 µM

Question: What about the TGI (UO-31 renal) of the same compound?
Answer: > 100 µM

Question: What about the GI50 (HOP-62 NSCLC) of the same compound?
Answer: > 100 µM

Question: What about the TGI (HOP-62 NSCLC) of the same compound?
Answer: > 100 µM

Question: And the GI50 (NCI-H322M lung)?
Answer: > 100 µM

Question: And the TGI (NCI-H322M lung)?
Answer: > 100 µM

Question: What about the GI50 (NCI-H460 lung) of the same compound?
Answer: 88.5 µM

Question: And the TGI (NCI-H460 lung)?
Answer: > 100 µM

Question: And the GI50 (SN12C renal)?
Answer: > 100 µM

Question: And the TGI (SN12C renal)?
Answer: > 100 µM

Question: What about the GI50 (EKVX NSCLC) of the same compound?
Answer: > 100 µM

Question: What about the TGI (EKVX NSCLC) of the same compound?
Answer: > 100 µM

Question: What about the GI50 (SNB-19 CNS) of the same compound?
Answer: > 100 µM

Question: And the TGI (SNB-19 CNS)?
Answer: > 100 µM

Question: And the GI50 (SK-MEL-2 melanoma)?
Answer: > 100 µM

Question: And the TGI (SK-MEL-2 melanoma)?
Answer: > 100 µM
